Data published in patent publication US20210179940A1, “WIDE TEMPERATURE RANGE AND HIGH PHOTOCHEMICAL STABILITY SMECTIC LIQUID CRYSTAL COMPOSITIONS WITH A MONOLAYER SMECTIC A PHASE (SMA1), METHOD OF OBTAINING THEREOF AND DEVICES UTILIZING THEREOF” (WOJSKOWA AKADEMIA TECHNICZNA, priority 2017, published 2021).

Experiment: solubility of ionic compounds in fluorobenzene
Settings: 25° C.
Method: Fluorobenzene was used as solvent because it is chemically similar to the liquid crystalline composition used here.
The examination was made in the following way: always the same mole amount of a ionic compound (0.00004 mol) was placed in 2 cm^3 of fluorobenzene. The mixture was mixed to dissolve the compound or to obtain equilibrium between the saturated solution and the solid. When a part of the compound was dissolved only, the sample of the saturated solution was taken (0.5 ml). The solvent was evaporated to dryness, the rest was weighted. Knowing the residue amount, the solubility was calculated.

complex of 18-crown-6 ether with sodium dodecyl-1-sulphonate [V.e12]
solubility in C6H5F: 0.019 mol/dcm^3
